For this assay, the target named is T1, postsynaptic α-adrenoreceptor (anococcygeus muscle) (Rattus norvegicus, UniProt P43140).
T1 construct: compound giving 50% maximum contraction in this instance, of the anococcygeus muscle; from tissue; host or cells: isolated anococcygeus muscle (rat)
T1 sequence (P43140 1-466): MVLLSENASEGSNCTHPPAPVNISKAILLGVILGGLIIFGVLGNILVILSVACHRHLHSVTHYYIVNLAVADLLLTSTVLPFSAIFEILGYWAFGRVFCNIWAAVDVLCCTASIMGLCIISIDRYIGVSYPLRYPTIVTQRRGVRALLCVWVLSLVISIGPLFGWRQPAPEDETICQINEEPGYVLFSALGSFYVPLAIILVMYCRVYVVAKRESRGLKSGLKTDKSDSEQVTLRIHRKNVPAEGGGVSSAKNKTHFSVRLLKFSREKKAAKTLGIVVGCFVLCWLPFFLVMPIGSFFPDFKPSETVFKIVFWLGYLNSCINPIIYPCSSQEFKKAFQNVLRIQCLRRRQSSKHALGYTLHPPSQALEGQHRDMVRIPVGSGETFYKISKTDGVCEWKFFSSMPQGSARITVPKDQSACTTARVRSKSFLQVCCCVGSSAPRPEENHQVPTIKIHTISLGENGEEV
The experiment in a line: Postsynaptic α-adrenoreceptor agonist activity, isolated anococcygeus muscle. Type of assay: cell-based.

The source of these data is patent publication US4411908A, “Imidazoline derivatives as presynaptic α2 -adrenoreceptor antagonists” (priority 1981, dated 1983).

One may read the EC50 as the concentration needed to bring the measured effect to its halfway point. Take `Clc1cccc(Cl)c1N=C1NCCN1` [Clonidine, reference compound]: the concentration for a half-maximal effect (EC50) is 31.6 nM.
